Laboratory results from patent US20210122804A1, “PEPTIDE LIGANDS FOR BINDING TO CD38” (BicycleTx Limited, priority 2018, published 2021).

Amino acid sequences for entries named in this document (tags omitted).
UniProt P28907, whole entry: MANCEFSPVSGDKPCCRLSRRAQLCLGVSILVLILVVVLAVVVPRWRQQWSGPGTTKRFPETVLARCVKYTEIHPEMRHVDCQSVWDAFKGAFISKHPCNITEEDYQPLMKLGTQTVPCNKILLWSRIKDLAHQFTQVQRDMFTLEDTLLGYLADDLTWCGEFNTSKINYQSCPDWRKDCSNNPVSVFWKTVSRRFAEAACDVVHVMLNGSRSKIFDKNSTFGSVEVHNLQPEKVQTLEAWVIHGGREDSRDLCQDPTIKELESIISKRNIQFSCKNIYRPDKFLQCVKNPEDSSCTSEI

Biological target: human CD38 (Homo sapiens, UniProt P28907)
Assay: CD38 Competition Binding Assay (fluorescence polarisation)
Procedure: CD38 Competition Binding Assay Affinity of various bicycle peptide compounds for human CD38 (Ki) was determined using a fluorescence polarisation assay, using the method reported by Lea et al (Expert Opin Drug Discov. 2011 6(1): 17-3) and using the following fluorescently labelled peptides ACTPCADFPIWGCA-Sar6-K(F1) for TBMB derivatives and ACYWNPFTGCYTCA-Sar6-K(F1) for TATA derivatives where Fl is a fluorescein molecule.

[1] = Table 2, reference bicycle ligands, TBMB or TATA scaffold (tracer differs by scaffold), evaluated as described in GB1800610.6
[2] = Table 1, TBMB derivatives, average of two measurements, tracer ACTPCADFPIWGCA-Sar6-K(F1), read-out: Ki

Substance	Ki [1] [nM]	also measured
ACVKCADFPIWGCA [66-03-11-N001]	41.3 ± 14.3	–
ACVPCADFPIFTCA [66-03-28-N002]	44.5 ± 14.7	–
ACTPCADFPIWSCA [66-03-01-N001]	471	–
ACFHLDGVCFDWTHECA [66-08-36-N001]	558	–
Ac-CVPCADFPIWGC [66-03-04-N002]	152	–
ACAWCSDPIDGFCA-Sar6-K(Biotin) [66-10-02-N001]	2550	–
ACFTLDGACFDWTHECA [Example 66-08-N002]	1100	–
Ac-ACFMLDGECFDLNKECA [66-08-05-N001]	1370	–
ACSWCVDDGLPFCA-Sar6-K(Biotin) [66-10-04-N001]	3920	–
Ac-ACFHLDGECFDLENTCA-Sar6-K(Biot) [66-08-01-N003]	38.5 ± 10.8	–
ACYWNPFTACFACEEP [66-50-21-T001-N001]	337 ± 229	–
ACFELDGTCFDWAQECA [Example 66-01-N002]	1180 ± 286	–
ACTWCVDDGLSFCA [Example 66-10-N001]	270	–
ACFVLDGECFDYYEECA [66-08-27-N001]	1220	–
Ac-CVKCADFPIWGC [66-03-11-N002]	298	–
ACYWNPFTACWACEPD [66-50-20-T001-N001]	85 ± 116	–
ACFRLDGECFDMGQECA [66-08-30-N001]	6950	–
ACTPCADFPIWYCA [66-03-06-N001]	64 ± 8.21	–
ACVPCADFPIWGCA [66-03-04-N001]	58.5 ± 33.9	–
ACTPCADMPIWTCA [66-03-15-N001]	274	–
ACFLLDGECFDLIGECA [66-08-49-N001]	1360 ± 151	–
ACIPCADFPISFCA [66-03-26-N003]	160 ± 13.7	–
ACFTLDGECFLLGENCA [66-08-52-N001]	563 ± 211	–
ACDWCTDNIPGICA [Example 66-13-N001]	357	–
ACFELDGECFHFGEPCA [66-08-46-N001]	1040 ± 170	–
ACFVLDGECFEIGERCA [66-08-47-N001]	237.5 ± 0.98	–
ACFHLDGECFDLENTCA [66-08-44-N001]	620	–

Substance	Ki [1] [nM]	also measured
ACFRLDGECFDISNECA [66-08-56-N001]	1150 ± 149	–
ACDFTMPCENWKYCA [66-05-07-N001]	2530	–
ACYWNPFTACYTCA [66-50-05-N001]	438 ± 192	–
ACVNFGSVCWDPDSRCA [Example 66-02-N002]	3660 ± 319	–
Ac-CVPCADFPIWYCA-Sar6-K [66-03-00-N008]	73	–
ACINYANICLDTEKMCA [Example 66-18-N001]	6890	–
DOTA-(B-Ala)-Sar10-A-CVPCADFPIWYC [66-03-00-N007]	52.5 ± 26.5	–
ACVPCADFPISFCA [66-03-25-N002]	208 ± 26.5	–
[Ac]A[Dap(Me)]VPCADFPIWYC [BCY00009246]	–	Ki [2]: 46.3 nM
[Ac]ACVPCADFPIWYC [BCY00009245]	–	Ki [2]: 26.8 nM; Ki (first measurement, read-out: measured affinity (Ki) to CD38): 35 nM; Ki (repeat measurement (n=2), mean, read-out: affinity (Ki) to CD38, mean value of repeat measurement): 27 nM
Ac-CTPCADFPIWYC [66-03-06-N002]	106	–
ACYWNPFSGCYSCA [66-50-07-N001]	498 ± 199	–
ACFKLDGVCFDLFHECA [66-08-04-N001]	3820	–
ACFWLDGECFDFGGCA [66-08-58-N001]	154 ± 17.6	–
ACFTLDGECFDWTHECA [66-08-03-N001]	139	–
ACFRLDGVCFDLDDECA [66-08-29-N001]	988	–
SSQHGCAWLCPNLCA-Sar6-K [66-08-01-N006]	106	–
ACFLLDGECFDWAQECA [66-08-43-N001]	131	–
ACFTLDGQCFDWTHECA [66-08-32-N001]	794	–
ACTPCADFPIYGCA [66-03-09-N001]	1050	–
ACTPCADFPIWGCA [Example 66-03-N002]	198 ± 29.1	–
ACYWNPFIQCSPCA [66-50-03-N001]	1700 ± 872	–
ACFLLDGECFDWMQECA [66-08-33-N001]	409	–
ACGWCSDQIDGFCA-Sar6-K(Biotin) [66-10-01-N001]	2960	–
ACYWNPFMGCYSCA [66-50-12-N001]	315 ± 363	–
ACFWLDGECFDLGGQCA [66-08-53-N001]	119 ± 27.4	–
ACYWNPFMACFDCA [66-50-11-N001]	684 ± 158	–

Like-named read-outs stand apart in the source and are kept apart here.
